In publication PMC5769128, “Human UDP-Glucuronosyltransferase 2B4 and 2B7 Are Responsible for Naftopidil Glucuronidation in Vitro” (Frontiers in Pharmacology, 2018):

T1: UGT2B7 (Homo sapiens, UniProt P16662)
T1 sequence (P16662 24-529): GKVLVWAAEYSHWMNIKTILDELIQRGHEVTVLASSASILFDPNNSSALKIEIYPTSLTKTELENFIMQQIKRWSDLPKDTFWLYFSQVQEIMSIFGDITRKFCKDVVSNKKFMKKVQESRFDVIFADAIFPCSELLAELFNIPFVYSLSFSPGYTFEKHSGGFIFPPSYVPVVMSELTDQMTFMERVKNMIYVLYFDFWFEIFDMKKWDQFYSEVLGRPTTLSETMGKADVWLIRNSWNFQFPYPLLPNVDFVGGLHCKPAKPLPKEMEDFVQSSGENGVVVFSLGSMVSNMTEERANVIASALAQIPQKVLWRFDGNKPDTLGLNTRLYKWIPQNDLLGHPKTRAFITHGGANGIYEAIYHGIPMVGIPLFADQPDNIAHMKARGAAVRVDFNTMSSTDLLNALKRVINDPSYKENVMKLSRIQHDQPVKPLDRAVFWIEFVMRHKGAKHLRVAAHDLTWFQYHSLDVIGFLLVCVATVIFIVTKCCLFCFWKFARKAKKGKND


What was measured:
UGT2B7 = molecular target: T1, UGT2B7; conditions: summary in discussion
[1] = substrate: COc1ccccc1N1CCN(C[C@H](O)COc2cccc3ccccc23)CC1; assay: cells, lysate or membranes named; conditions: other: NAF glucuronidation by UGT1A9; pH 7.5; 37.0 °C
[2] = substrate: COc1ccccc1N1CCN(C[C@@H](O)COc2cccc3ccccc23)CC1; assay: cells, lysate or membranes named; conditions: other: NAF glucuronidation by UGT1A9; pH 7.5; 37.0 °C

Row | concentration at which UGT2B7 is competitively inhibited (UGT2B7) [µM] | Molecule | Km [1] [µM] | Km [2] [µM]
1 | 10 to 100 | COc1ccccc1N1CCN(C[C@@H](O)COc2cccc3ccccc23)CC1 [R(+)-NAF] |  | 
2 | 10 to 100 | COc1ccccc1N1CCN(C[C@H](O)COc2cccc3ccccc23)CC1 [S(-)-NAF] |  | 
3 |  | recombinant human UGT1A9 (Homo sapiens) (protein) GKLLVVPMDGSHWFTMRSVVEKLILRGHEVVVVMPEVSWQLGRSLNCTVKTYSTSYTLEDLDREFKAFAHAQWKAQVRSIYSLLMGSYNDIFDLFFSNCRSLFKDKKLVEYLKESSFDAVFLDPFDNCGLIVAKYFSLPSVVFARGILCHYLEEGAQCPAPLSYVPRILLGFSDAMTFKERVRNHIMHLEEHLLCHRFFKNALEIASEILQTPVTEYDLYSHTSIWLLRTDFVLDYPKPVMPNMIFIGGINCHQGKPLPMEFEAYINASGEHGIVVFSLGSMVSEIPEKKAMAIADALGKIPQTVLWRYTGTRPSNLANNTILVKWLPQNDLLGHPMTRAFITHAGSHGVYESICNGVPMVMMPLFGDQMDNAKRMETKGAGVTLNVLEMTSEDLENALKAVINDKSYKENIMRLSSLHKDRPVEPLDLAVFWVEFVMRHKGAPHLRPAAHDLTWYQYHSLDVIGFLLAVVLTVAFITFKCCAYGYRKCLGKKGRVKKAHKSKTH | 3 | 7
